Values of other authors as cited in patent publication US20060058225A1, “Used of inhibitors of phospholipase a2 for the treatment, prevention or diagnosis of neural inflammatory or demyelinating disease” (McGill University, priority 2002, published 2006).

System: EAE
Conditions: timing of treatment not stated

Substance: MPQX
- clinical score in treated animals: 0.8
